Test results taken from patent US20120295965A1, “FUSED THIOPHENES AS DUAL INHIBITORS OF EGFR/VEGFR AND THEIR USE IN THE TREATMENT OF CANCER” (priority 2009, published 2012).

Tested on: mallotoxin response in HT29
Experiment: Epic label-free DMR biosensor cellular assay, hERG activator mallotoxin marker in HT29
Conditions: MTX at 16 micromolar
Protocol: HT29 expresses VEGFR1 (Flt1 receptor), but not other VEGF receptors.
All cell lines were obtained from American Type Cell Culture (Manassas, Va.). The cell culture medium was as follows: (1) Dulbecco's modified Eagle's medium (DMEM) supplemented with 10% fetal bovine serum (FBS), 4.5 g/liter glucose, 2 mM glutamine, and antibiotics for human epidermoid carcinoma A431; and (2) McCoy's 5a Medium Modified supplemented with 10% FBS, 4.5 g/liter glucose, 2 mM glutamine, and antibiotics for human colorectal adenocarcinoma HT29.
Cells were typically grown using ˜1 to 2×10^4 cells per well at passage 3 to 15 suspended in 50 μl of the corresponding culture medium in the biosensor microplate, and were cultured at 37° C. under air/5% CO2 for ˜1 day. […]
For biosensor cellular assays, molecule solutions were made by diluting the stored concentrated solutions with the HBSS (1× Hanks balanced salt solution, plus 20 mM Hepes, pH 7.1), and transferred into a 384well polypropylene molecule storage plate to prepare a molecule source plate. […] Both the cell assay plate and the molecule and marker source plate(s) were then incubated in the hotel of the reader system. After ˜1 hr of incubation the baseline wavelengths of all biosensors in the cell assay microplate were recorded and normalized to zero. […]

6H-Indeno[1,2-e]tetrazolo[1,5-b][1,2,4]triazin-6-one & 10H-Indeno[2,1-e]tetrazolo[1,5-b][1,2,4]triazin-10-one [dual PDK1/AKT/Flt1 pathway inhibitor]
impact on DMR signal of MTX in HT29: almost completely attenuated
